# According to US5747458A, “Urokinase receptor ligands” (Chiron Corporation, priority 1995, dated 1998):
# Protein sequences, listed by entry. Tags and fused reporters are not part of them. Residues count along the entry.
# UniProt Q03405, 23-335 limits assumed: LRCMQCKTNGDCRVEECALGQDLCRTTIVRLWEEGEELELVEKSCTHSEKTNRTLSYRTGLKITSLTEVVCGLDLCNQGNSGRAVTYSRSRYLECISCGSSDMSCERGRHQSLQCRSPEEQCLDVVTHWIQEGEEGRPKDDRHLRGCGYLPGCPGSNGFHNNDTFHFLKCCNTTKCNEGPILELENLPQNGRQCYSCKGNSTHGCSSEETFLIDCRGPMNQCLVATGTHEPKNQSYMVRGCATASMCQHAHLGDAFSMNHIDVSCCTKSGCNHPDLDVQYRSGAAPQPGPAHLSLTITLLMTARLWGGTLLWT
# Target: human urokinase receptor (Homo sapiens, UniProt Q03405)
# Experiment: human urokinase receptor radioligand competition assay
# Settings: for IC50: labeled ligand: epitope tagged EGF-like domain of human urokinase
# From the text: Compounds of the invention may be screened for activity following any generally suitable assay for urokinase activity or inhibition. A particularly useful assay described in Goodson et al., Proc Natl Acad Sci USA (1994) 91:7129 (incorporated herein by reference). One may substitute fragments of urokinase for the intact molecule (e.g., one may use the EGF-like binding domain alone, without the enzymatically-active portion of uPA). In general, the compounds should be tested against uPA receptors derived from the species to be treated, as some species specificity is known to exist.
# Compounds prepared as described in Example 1 above were screened in a human urokinase receptor radioligand competition assay, as described in Goodson et al., Proc Natl Acad Sci USA (1994) 91:7129 (incorporated herein by reference), except that the labeled ligand used was an epitope tagged version of the EGF-like domain of human urokinase, expressed and purified from recombinant yeast.
Structure (SMILES),IC50 [nM],other results
COc1ccc(C(NC(=O)CN(CC(N)=O)C(=O)CN(C(=O)CNCCc2c(O)cc(O)cc2O)c2ccc3c(c2)CCC3)c2ccc(OC)cc2)cc1,2600,–
COc1ccc(C(NC(=O)CN(C(=O)CN(C(=O)C(C)NCCc2ccc(O)cc2)c2ccc3c(c2)CCC3)C(C)C(N)=O)c2ccc(OC)cc2)cc1 (centres unmarked),120,% Inhibition (Concentration 0.1 μM): 27.2%
COc1ccc(C(NC(=O)CN(CC(N)=O)C(=O)CN(C(=O)CNCCc2ccc(O)cc2)C2CCCCC2)c2ccc(OC)cc2)cc1,> 10000,% Inhibition (Concentration 0.2 μM): 19.3%
COc1ccc(C(NC(=O)CN(CC(N)=O)C(=O)CN(CCc2ccccc2)C(=O)CNCCc2ccc(O)cc2)c2ccc(OC)cc2)cc1,10000,% Inhibition (Concentration 2.5 μM): 24.1%
COc1ccc(C(NC(=O)CN(CC(N)=O)C(=O)CN(C(=O)CNCc2ccccc2)c2ccc3c(c2)CCC3)c2ccc(OC)cc2)cc1,770,% Inhibition (Concentration 0.2 μM): 43.5%
C#CCNCC(=O)N(CC(=O)N(CC(N)=O)CC(=O)NC(c1ccc(OC)cc1)c1ccc(OC)cc1)c1ccc2ccccc2c1,33,–
COc1ccc(CCNCC(=O)N(CC(=O)N(CC(N)=O)CC(=O)NC(c2ccc(OC)cc2)c2ccc(OC)cc2)c2ccc3c(c2)CCC3)cc1,440,% Inhibition (Concentration 1 μM): 72.5%
COc1ccc(C(NC(=O)CN(CC(N)=O)C(=O)CN(C(=O)C(C)NCCc2ccc(O)cc2)c2ccc3c(c2)CCC3)c2ccc(OC)cc2)cc1 (centres unmarked),105,–
COc1ccc(C(NC(=O)CN(CC(N)=O)C(=O)CN(C(=O)CNCCc2ccccc2)c2ccc3c(c2)CCC3)c2ccc(OC)cc2)cc1,1380,–
COc1ccc(C(NC(=O)CN(CC(N)=O)C(=O)CN(C(=O)CNCCc2ccc(O)cc2)c2ccc(-c3ccccc3)cc2)c2ccc(OC)cc2)cc1,1900,% Inhibition (Concentration 0.2 μM): 36.6%
NC(=O)CN(CC(=O)NC(c1ccccc1)c1ccccc1)C(=O)CN(C(=O)CNCCc1ccc(O)cc1)c1ccc2c(c1)CCC2,930,–
COc1ccc(C(NC(=O)CN(CC(N)=O)C(=O)CN(C(=O)CNCCCCO)c2ccc3c(c2)CCC3)c2ccc(OC)cc2)cc1,760,% Inhibition (Concentration 1 μM): 51.4%
COc1ccc(C(NC(=O)CN(CC(N)=O)C(=O)CN(C(=O)CNCCc2ccc(O)cc2)c2ccccc2)c2ccc(OC)cc2)cc1,1800,–
COc1ccc(C(NC(=O)CN(CC(N)=O)C(=O)CN(C(=O)CNCCc2ccc(O)cc2)c2ccc3c(c2)CCC3)c2ccc(OC)cc2)cc1,200,–
C#CCNCC(=O)N(CC(=O)N(CC(N)=O)CC(=O)NC(c1ccc(OC)cc1)c1ccc(OC)cc1)c1ccc2c(c1)CCC2,700,% Inhibition (Concentration 0.2 μM): 32.8%
